In ChEMBL document CHEMBL3856205, “Synthesis and biological evaluation of novel 4-hydroxytamoxifen analogs as estrogen-related receptor gamma inverse agonists” (Eur J Med Chem, 2016):

Biological target: T1, Steroid hormone receptor ERR2 (Homo sapiens, UniProt O95718)
T1 sequence (O95718 whole entry): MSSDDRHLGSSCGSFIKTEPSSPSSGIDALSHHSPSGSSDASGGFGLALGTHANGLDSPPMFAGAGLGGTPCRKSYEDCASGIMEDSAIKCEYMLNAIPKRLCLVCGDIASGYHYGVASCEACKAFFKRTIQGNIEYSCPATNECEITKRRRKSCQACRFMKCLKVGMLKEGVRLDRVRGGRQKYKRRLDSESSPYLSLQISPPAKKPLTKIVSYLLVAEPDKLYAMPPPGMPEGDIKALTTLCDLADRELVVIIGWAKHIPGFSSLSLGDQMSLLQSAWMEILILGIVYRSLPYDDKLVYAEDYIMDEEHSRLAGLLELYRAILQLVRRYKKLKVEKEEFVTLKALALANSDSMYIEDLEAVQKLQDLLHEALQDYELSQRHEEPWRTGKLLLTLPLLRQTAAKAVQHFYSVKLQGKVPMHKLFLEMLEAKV
Assay: Inhibition of fluorescien-conjugated coactivator PGC1a binding to ERRbeta (unknown origin) after 1 hr by TR-FRET assay

IC50: > 10 µM
Structure (SMILES): CN(C)CCOc1ccc(/C(=C(/CCCO)c2ccccc2)c2ccc(O)cc2)cc1.Cl
